Values of other authors as cited in paper PMC3590912 (Journal of medicinal chemistry, 2012).

Target: T1, mouse UT-B (Mus musculus, UniProt Q8VHL0)
T1 sequence (Q8VHL0 1-384): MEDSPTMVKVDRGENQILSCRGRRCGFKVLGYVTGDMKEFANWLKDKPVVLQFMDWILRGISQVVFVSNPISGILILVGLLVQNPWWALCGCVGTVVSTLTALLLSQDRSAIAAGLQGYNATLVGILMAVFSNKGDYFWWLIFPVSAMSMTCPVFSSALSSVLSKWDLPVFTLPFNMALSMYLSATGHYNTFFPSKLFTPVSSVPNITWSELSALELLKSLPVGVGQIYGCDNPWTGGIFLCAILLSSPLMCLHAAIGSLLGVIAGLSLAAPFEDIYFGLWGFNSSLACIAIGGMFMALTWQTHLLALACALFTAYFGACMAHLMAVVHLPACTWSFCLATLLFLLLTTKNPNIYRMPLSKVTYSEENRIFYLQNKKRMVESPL
Settings: cited from earlier work

CCc1ccc(S(=O)(=O)c2nnn3c2nc(NCc2cccs2)c2sccc23)cc1 [compound 1]
selectivity for UT-B over UT-A isoforms: highly selective for UT-B over UT-A isoforms
